Values of other authors in patent US5756501A, “Saturated and unsaturated pyridazino[4,5-B] indolizines useful as antidementia agents” (American Home Products Corporation, priority 1996, dated 1998).

System: m1 receptors
Conditions: cited from earlier work

For `C[N+](C)(C)CCOC(N)=O` [carbachol], the “activation of m1 receptors” value is listed as “able to fully activate m1 receptors”.
